Literature values, collected in patent publication US10273304B2, “Biomarker profiles for predicting outcomes of cancer therapy with ERBB3 inhibitors and/or chemotherapies” (Merrimack Pharmaceuticals, Inc., priority 2013, dated 2019).

System: patients whose tumors express EGFR
Details: cited from earlier work

Question: With “cetuximab: monoclonal antibody that targets the epidermal growth factor receptor (EGFR)” as the substance, how does the “patients who respond to monotherapy” value read?
Answer: Its value is 15-20%.
